The source of these data is patent US9783547B2, “Water soluble 4-azapodophyllotoxin analogs” (CENTRE NATIONAL DE LA RECHERCHE SCIENTIFIQUE (CNRS), priority 2014, dated 2017).

Entries after “also recorded” stand apart in the source; their conditions may differ.

The test system of the data set is colon 26 carcinoma. Nature of the data set: Antitumor activity in colon 26 carcinoma bearing mice. As to conditions: for Drug death (day of death): deaths/animals; for Note (activity / toxicity assessment): hydrochloride.
Setting [1] is: 31 mg/kg i.p. days 4, 5, 11, 12, 14, 15.
Where [2] appears, read: 50 mg/kg i.p. days 4, 5, 11, 12, 14, 15.

`COc1cc(Nc2c3c(nc4cc5c(cc24)OCO5)CCCC3=O)cc(OC)c1OC.Cl` [SGR307.HCl, 6,7-(Methylenedioxy)-9-(3,4,5-trimethoxyphenylamino)-3,4-dihydroacridin-1(2H)-one, hydrochloride]: the “Drug death (day of death)” value is 0/5 under setting [1]; 0/5 under setting [2]; 5/5 (80.6 mg/kg i.p. days 4, 5, 11, 12, 14, 15, days of death 7, 8, 11, 2d15). The “Note (activity / toxicity assessment)” value is, setting by setting: under setting [1], “not toxic; also recorded: highly active”; under setting [2], “not toxic; also recorded: highly active”.
